Values of other authors as cited in patent US6448011B1, “DNA encoding human alpha 1 adrenergic receptors and uses thereof” (Synaptic Pharmaceutical Corporation, priority 1992, dated 2002).

Chains of the proteins cited; added tags and fusions are not shown.
UniProt P23944, whole entry, looked up: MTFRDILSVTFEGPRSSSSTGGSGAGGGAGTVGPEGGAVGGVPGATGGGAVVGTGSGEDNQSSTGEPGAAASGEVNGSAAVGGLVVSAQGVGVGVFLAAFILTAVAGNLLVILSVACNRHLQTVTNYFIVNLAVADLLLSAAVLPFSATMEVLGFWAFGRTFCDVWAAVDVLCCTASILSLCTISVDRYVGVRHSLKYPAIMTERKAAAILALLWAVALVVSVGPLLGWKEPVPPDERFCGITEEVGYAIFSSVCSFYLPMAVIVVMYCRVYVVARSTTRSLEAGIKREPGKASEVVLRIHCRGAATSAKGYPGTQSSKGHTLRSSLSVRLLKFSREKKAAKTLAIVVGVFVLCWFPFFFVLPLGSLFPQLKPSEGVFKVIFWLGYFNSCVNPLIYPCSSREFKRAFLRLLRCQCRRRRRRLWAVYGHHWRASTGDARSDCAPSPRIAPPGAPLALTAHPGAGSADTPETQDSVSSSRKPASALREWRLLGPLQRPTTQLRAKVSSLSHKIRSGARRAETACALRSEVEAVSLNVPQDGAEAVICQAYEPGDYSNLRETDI

Legend:
[1] = system: α1-receptors from the hippocampus or vas deferens (α1a); conditions: cited from earlier work
rat α1a receptor = rat α1a receptor (Rattus norvegicus, UniProt P23944); conditions: rat α1a in COS-7 cells; cited from earlier work

CN(CCCl)Cc1cc(Cl)c(NC2=NCCN2)c(Cl)c1
inactivation of α1-receptors [1]: did not inactivate
inactivation of the binding site (rat α1a receptor): resistant to inactivation
